# Earlier results in US20250299826A1, “OPTIMAL TUMOR MICROENVIRONMENT NORMALIZATION THERAPY” (University of Connecticut, priority 2022, published 2025).
# Where two headings read alike, the source gives them in different places.
# Settings: cited from earlier work
Substance,"k_d, blood circulation time (tumor transport model parameter) [min]",half-life of vascular concentration (in vivo),"k_d, blood circulation time (in vivo) [min]"
70 kDa rhodamine-bound dextran,1480,,
500 kDa FITC-bound dextran,,around 21 h,1278
